Measurements taken from US11839613B2, “Pyrimidine derivatives as PGE2 receptor modulators” (IDORSIA PHARMACEUTICALS LTD, priority 2017, dated 2023).
pIC50: −log10 of the molar value. Like-named read-outs stand apart in the source and are kept apart here.

Protein sequences, listed by entry. Tags and fused reporters are not part of them.
UniProt P35408, whole entry: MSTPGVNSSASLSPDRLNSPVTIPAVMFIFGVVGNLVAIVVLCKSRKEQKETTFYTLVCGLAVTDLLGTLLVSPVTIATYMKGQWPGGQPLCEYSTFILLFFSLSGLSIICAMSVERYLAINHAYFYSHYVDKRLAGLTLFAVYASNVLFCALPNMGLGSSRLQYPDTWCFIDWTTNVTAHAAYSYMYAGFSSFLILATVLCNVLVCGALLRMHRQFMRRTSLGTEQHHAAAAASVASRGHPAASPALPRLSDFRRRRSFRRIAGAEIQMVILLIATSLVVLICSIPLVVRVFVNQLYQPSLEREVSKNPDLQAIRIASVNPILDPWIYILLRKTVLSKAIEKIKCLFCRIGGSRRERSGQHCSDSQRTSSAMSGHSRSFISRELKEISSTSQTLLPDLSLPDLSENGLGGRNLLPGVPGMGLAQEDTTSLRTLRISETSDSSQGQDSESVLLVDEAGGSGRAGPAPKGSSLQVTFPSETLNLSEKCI
UniProt P43116, whole entry: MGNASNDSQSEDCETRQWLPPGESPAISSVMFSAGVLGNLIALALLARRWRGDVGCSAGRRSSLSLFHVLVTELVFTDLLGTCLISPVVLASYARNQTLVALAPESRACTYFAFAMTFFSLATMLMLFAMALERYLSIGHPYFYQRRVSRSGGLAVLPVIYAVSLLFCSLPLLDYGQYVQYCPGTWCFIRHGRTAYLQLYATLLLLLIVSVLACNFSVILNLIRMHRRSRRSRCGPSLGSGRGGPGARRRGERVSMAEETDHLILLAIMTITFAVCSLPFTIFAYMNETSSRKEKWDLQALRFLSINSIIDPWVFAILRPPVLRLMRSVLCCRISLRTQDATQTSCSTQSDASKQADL

Experiments:
Assay type in all cases: cell-based
EP4 = EP4 (Homo sapiens (Human), UniProt P35408); experiment: hEP4 cAMP assay (BT549 breast cancer cells, HTRF cAMP)
EP2 = EP2 (Homo sapiens (Human), UniProt P43116); experiment: hEP2 cAMP assay (SF295 glioblastoma cells, HTRF cAMP)
PTGER2 (EP2) = PTGER2 (EP2) (Homo sapiens (Human), UniProt P43116); experiment: hEP2 b-arrestin assay (PathHunter HEK 293 PTGER2 b-arrestin cells); settings: read-out: hEP2 b-arr IC50; antagonistic activity, beta-arrestin assay; tested form: ammonium salt
[1] = read-out: hEP4 cAMP IC50, antagonistic activity, PGE2 6 nM, tested form: ammonium salt
[2] = read-out: hEP2 cAMP IC50, antagonistic activity, tested form: ammonium salt

O=C(O)c1c[nH]c2cc(-c3cc(NCCc4ccc5sccc5c4)ncn3)ccc12
pIC50 (EP4; read-out: hEP4 cAMP IC50, antagonistic activity, PGE2 6 nM): 6.53
pIC50 (EP2; read-out: hEP2 cAMP IC50, antagonistic activity): 6.34

O=C(O)c1ccc(-c2cc(NCCc3ccc4ccoc4c3)ncn2)cc1OC1CCC1
pIC50 (PTGER2 (EP2)): 6.67
pIC50 (EP4; [1]): 6.43
pIC50 (EP2; [2]): 6.73

CCOc1cc(-c2cc(NCCc3ccc4occc4c3)ncn2)sc1C(=O)O
pIC50 (PTGER2 (EP2)): 7.21
pIC50 (EP4; [1]): 7.62
pIC50 (EP2; [2]): 7.28

CCOc1cc(-c2cc(NCCc3ccc4ccoc4c3)ncn2)sc1C(=O)O
pIC50 (PTGER2 (EP2)): 7.33
pIC50 (EP4; [1]): 7.66
pIC50 (EP2; [2]): 7.35

O=C(O)c1ccc(-c2cc(NCCc3ccc4occc4c3)ncn2)cc1OC1CCC1
pIC50 (PTGER2 (EP2)): 6.77
pIC50 (EP4; [1]): 6.45
pIC50 (EP2; [2]): 6.71

CCOc1cc(-c2cc(NCCc3ccc4occc4c3)ncn2)ccc1C(=O)O
pIC50 (PTGER2 (EP2)): 6.30
pIC50 (EP4; [1]): 6.12
pIC50 (EP2; [2]): 6.63

CCOc1cc(-c2cc(NCCc3ccc4ccoc4c3)ncn2)ccc1C(=O)O
pIC50 (EP4; [1]): 6.27
pIC50 (EP2; [2]): 6.59
